Data: PubChem BioAssay AID720507 (National Center for Advancing Translational Sciences (NCATS), 2013)
This is a selection; strong and weak results do not stand in their true shares. Records with an inconclusive call do not appear. The source made the active and inactive calls. Calls come from the whole dose curve; as a rule, active = well fitted activation curve with a large enough effect; inconclusive = small, poorly fitted or top-dose-only effect; inactive = flat fitted curve, though single readings scatter.

The chains behind the UniProt entries cited, without tags or fusion partners.
UniProt P14416, whole entry, looked up: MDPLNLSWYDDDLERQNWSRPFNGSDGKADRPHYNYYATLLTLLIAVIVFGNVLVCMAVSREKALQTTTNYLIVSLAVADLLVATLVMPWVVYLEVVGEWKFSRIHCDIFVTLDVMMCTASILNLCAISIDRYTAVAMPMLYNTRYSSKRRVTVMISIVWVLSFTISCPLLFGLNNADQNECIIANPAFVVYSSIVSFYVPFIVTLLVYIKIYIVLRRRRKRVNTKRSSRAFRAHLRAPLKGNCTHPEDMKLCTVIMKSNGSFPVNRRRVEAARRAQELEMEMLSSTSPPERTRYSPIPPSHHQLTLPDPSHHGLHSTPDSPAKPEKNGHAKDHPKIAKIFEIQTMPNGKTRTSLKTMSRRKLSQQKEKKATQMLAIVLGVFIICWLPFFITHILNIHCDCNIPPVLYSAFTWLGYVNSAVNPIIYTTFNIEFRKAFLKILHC

These compounds were tested against D(2) dopamine receptor (Homo sapiens) (UniProt P14416) (assay: qHTS of D3 Dopamine Receptor Agonist: D2 Dopamine Receptor B-arrestin Agonist Counterscreen). Conditions: DiscoveRx PathHunter D2 beta-arrestin, luminescence, 90 min.
Text: D3 DARs represent a very important target for the treatment of several neuropsychiatric disorders. Indeed, one of the most promising therapeutic applications for the D3 DAR is in the area of addiction and related disorders. […] These findings have been observed with a number of addictive substances including cocaine, amphetamine, nicotine, and alcohol. […] Increased D3 DAR activity can thus lead to neuroprotective and neurorestorative actions in the CNS. […] This assay is used to profile the activity of the identified D3 dopamine receptor agonist against the D2 dopamine receptor. Greater than 10% of the maximum dopamine agonist response is desired for this assay. NIH Molecular Libraries Probe Production Centers Network [MLPCN] NIH Chemical Genomics Center [NCGC] MLPCN Grant: NS064831 Assay Submitter (PI): David Sibley
DiscoveRx D2 cells were thawed from frozen stock and seeded at 2,100 cells/ 3 uL/well media (DiscoveRx Plating Reagent 2) with MultiDrop Combi dispenser (Thermo Scientific, Logan, UT) onto white tissue culture treated 1536-well Aurora plates (Brooks Automation, Chelmsford, MA) and allowed to attach overnight at 37 deg C, 5% CO2. […] The plates were incubated at ambient temperature for 1 hour and then the luminescent signal was read on ViewLux plate reader (PerkinElmer, Waltham, MA).
Note: nearly all actives have a fitted effect of over 70% in size.
Potency is the fitted concentration of half-maximal effect.

Compound | Potency
CCCN1CCC[C@H](c2cccc(O)c2)C1 | active: 2820 nM
